Here are results for 1 molecule from US9974792B2, “Methods for treating cancers” (Gilead Sciences, Inc., priority 2013, dated 2018).

The subject of data set [1] is subjects with CLL, FL, lymphoplasmacytoid lymphoma/SLL/marginal zone lymphoma, MCL, or DLBCL. Conditions: N = 145. As to the method: A phase 2, open-label, single-agent study was completed to evaluate the efficacy, safety, tolerability, and pharmacodynamics of entospletinib in subjects with relapsed or refractory hematologic malignancies.
Treatment with entospletinib was at a dose of 800 mg twice a day over 28-day cycles under fasted conditions. Fasting was defined as no food or liquids other than water for 2 hours pre- and 1 hour post-dose.
Secondary end points included tolerability, objective response rate (ORR), duration of response (DOR), time to response, and lymph node response rate. […] Exploratory end points included plasma drug concentrations and pharmacodynamic biomarkers.
Subjects were allowed to enroll in the study if they had cytopenias due to CLL. Treatment-emergent cytopenias were defined as a cytopenia that worsened in the period from the first dose of study treatment to 30 days after the last dose of study treatment.

For data set [2], the target named is Syk (Homo sapiens, UniProt P43405). The experiment in a line: cell-based.

The EC50 is the concentration at which the effect is half-maximal. Low values mean a more potent agent, high ones a less potent agent. On to `c1cn2cc(-c3ccc4cn[nH]c4c3)nc(Nc3ccc(N4CCOCC4)cc3)c2n1` [compound of formula I, 6-(1H-indazol-6-yl)-N-(4-morpholinophenyl)imidazo[1,2-a]pyrazin-8-amine], for which the “Serious AE: Dehydration, %” value in data set [1] is recorded as “(2.1) %”. The molecule further showed a half-maximal effective concentration (EC50) in data set [2] of 763 nM.
